# Like-named read-outs stand apart in the source and are kept apart here.
# Sequences of proteins named here, by UniProt entry; tags and fusion partners are left off.
# UniProt O43613, whole entry: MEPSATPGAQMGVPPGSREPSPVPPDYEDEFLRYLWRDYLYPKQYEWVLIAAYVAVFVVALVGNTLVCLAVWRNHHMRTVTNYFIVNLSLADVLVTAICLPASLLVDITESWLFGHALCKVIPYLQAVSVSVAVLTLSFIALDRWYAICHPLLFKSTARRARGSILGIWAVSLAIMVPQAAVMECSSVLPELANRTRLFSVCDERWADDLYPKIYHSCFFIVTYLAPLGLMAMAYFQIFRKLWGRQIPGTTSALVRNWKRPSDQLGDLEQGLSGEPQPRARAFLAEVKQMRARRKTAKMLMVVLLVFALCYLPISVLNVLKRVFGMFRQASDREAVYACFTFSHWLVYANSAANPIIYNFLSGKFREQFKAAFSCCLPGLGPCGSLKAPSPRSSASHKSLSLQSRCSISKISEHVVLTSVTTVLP
# UniProt O43614, whole entry: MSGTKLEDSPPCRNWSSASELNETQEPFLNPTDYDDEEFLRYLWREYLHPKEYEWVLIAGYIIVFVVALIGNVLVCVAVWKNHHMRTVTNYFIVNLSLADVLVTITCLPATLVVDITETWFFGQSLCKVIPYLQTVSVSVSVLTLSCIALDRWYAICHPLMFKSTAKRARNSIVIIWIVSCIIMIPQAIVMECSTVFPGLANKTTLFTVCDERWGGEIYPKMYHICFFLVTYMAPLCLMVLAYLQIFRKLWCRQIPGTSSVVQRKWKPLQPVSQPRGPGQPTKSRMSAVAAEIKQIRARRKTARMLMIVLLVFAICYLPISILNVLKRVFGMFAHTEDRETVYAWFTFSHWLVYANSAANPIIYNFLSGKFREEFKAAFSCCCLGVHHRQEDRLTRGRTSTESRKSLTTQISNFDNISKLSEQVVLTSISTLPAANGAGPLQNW
# Assays:
# [1] = molecular target: human orexin 1 receptor (Homo sapiens (Human), UniProt O43613); experiment: Human orexin 1 receptor radioligand binding ([3H]-SB674042 competition); conditions: read-out: OR-1 Ki
# Method: (§1) The in vitro affinity of the compounds for the human orexin-1 and orexin-2 receptors was determined by competitive radioligand binding using [^3H]SB SB674042 (1-(5-(2-fluoro-phenyl)-2-methyl-thiazol-4-yl)-1-((S)-2-(5-phenyl-(1,3,4)oxadiazol-2-ylmethyl)-pyrrolidin-1-yl)methanone) (Langmead et al., British Journal of Pharmacology 2004, 141:340-346.) and [^3H]EMPA (N-ethyl-2[(6-methoxy-pyridin-3-yl)-(toluene-2-sulfonyl)-amino]-N-pyridin-3-ylmethyl acetamide) (Malherbe et al., British Journal of Pharmacology, 2009, 156(8), 1326-1341), respectively.
# Human Orexin 1 Receptor Radioligand Binding Studies
# Chinese ovary cells (CHO) stably expressing human orexin 1 receptor (Genebank accession number NM_001526) were grown to confluency in DMEM/F12 (Gibco, Cat #11039), 10% FBS, 1× Pen/Strep, 600 μg/mL G418 media on 150 cm^2 tissue culture plates, washed with 5 mM EDTA in PBS (HyClone Dulbecco's Phoshpate Buffered Saline 1× with Calcium and Magnesium, Cat #SH30264.01, hereafter referred to simply as PBS) and scraped into 50 ml tubes. After centrifugation (2K xG, 10 min at 4° C.), the supernatant was aspirated and the pellets frozen and stored at −80° C. Cells were resuspended in PBS in the presence of 1 tablet of protease inhibitor cocktail (Roche, Cat. #11836145001) per 50 mL. […] Compounds were solubilized in 100% DMSO (Acros Organics, Cat. #61042-1000) and tested over a range of 7 concentrations (from 0.1 nM to 10 μM). The final concentration of DMSO in the reactions is equal to or less than 0.1%. Total and nonspecific binding was determined in the absence and presence of 10 μM (1-(6,8-difluoro-2-methylquinolin-4-yl)-3-[4-(dimethylamino)phenyl]urea, CAS Registry #288150-92-5). The total volume of each reaction is 200 μL (20 μL of diluted compounds, 80 μL of [^3H]-SB674042 diluted in PBS and 100 μL of the cell suspension). […] Plates were dried in 55° C. oven for 60 min, scintillation fluid was added, and the radioactivity was counted on a Topcount (Packard).
# [2] = molecular target: human orexin-2 receptor (Homo sapiens (Human), UniProt O43614); experiment: Human orexin 2 receptor radioligand binding ([3H]-EMPA competition); conditions: read-out: OR-2 Ki
# Method: as §1
# Human Orexin 2 Receptor Radioligand Binding Studies
# HEK293 stably expressing human orexin-2 receptor (Genebank accession number NM_001526) were grown to confluency in DMEM/F12 (Gibco, Cat #11039), in DMEM, 10% FBS, 1× Pen/Strep, 1× NaPyruvate, 1×HEPES, 600 ug/ml G418 media on 150 cm^2 tissue culture plates, washed with 5 mM EDTA in PBS (HyClone Dulbecco's Phosphate Buffered Saline 1× with Calcium and Magnesium, Cat #SH30264.01, hereafter referred to simply as PBS) and scraped into 50 ml tubes. After centrifugation (2K xG, 10 min at 4° C.), the supernatant was aspirated and the pellets frozen and stored at −80° C. Cells were resuspended in PBS in the presence of 1 tablet of protease inhibitor cocktail (Roche, Cat. #11836145001) per 50 mL. […] Competition binding experiments in 96 well polypropylene plates were performed using [^3H]-EMPA (Moravek Corporation, specific activity=27 Ci/mmol), diluted to a […] concentration in PBS (5 nM final concentration). Compounds were solubilized in 100% DMSO (Acros Organics, Cat. #61042-1000) and tested over a range of 7 concentrations (from 0.1 nM to 10 μM). The final concentration of DMSO in the reactions is equal to or less than 0.1%. Total and nonspecific binding was determined in the absence and presence of 10 μM (N-[2-(3,4-dimethoxyphenyl)ethyl]-N-methylnaphthalene-1-carboxamide, CAS Registry #1089563-88-1). […] Plates were dried in 55° C. oven for 60 min, scintillation fluid was added, and the radioactivity was counted on a Topcount (Packard).
# [3] = CHO cells stably expressing human orexin 1 receptor, [3H]-SB674042 4 nM final
# [4] = HEK293 cells stably expressing human orexin-2 receptor, [3H]-EMPA 5 nM final
"Ki [1, 3] [nM]","Ki [2, 4] [nM]",SMILES,Ki [1] [nM],Ki [2] [nM]
8,10,"O=C(c1ccccc1-c1ccccc1)N1CC[C@H]2CN(c3cnc4ccccc4n3)[C@H]2C1 [Example 5, (1R,6S)Biphenyl-2-yl-(8-quinoxalin-2-yl-3,8-diaza-bicyclo[4.2.0]oct-3-yl)-methanone]",,
24,24,"O=C(c1ccccc1-c1ccccc1)N1CCC2CN(c3cnc4ccccc4n3)C2C1 (stereo not drawn) [Example 8, Biphenyl-2-yl-(8-quinoxalin-2-yl-3,8-diaza-bicyclo[4.2.0]oct-3-yl)-methanone]",,
,,"Cc1cc(C)nc(N2C[C@@H]3CCN(C(=O)c4ccnc5ncccc45)C[C@@H]32)n1 [Example 132, 4-{[(1R,6S)-8-(4,6-Dimethylpyrimidin-2-yl)-3,8-diazabicyclo[4.2.0]oct-3-yl]carbonyl}-1,8-naphthyridine]",10000,10000

# Source: patent US8680275B2, “Fused heterocyclic compounds as orexin receptor modulators” (Janssen Pharmaceutica NV, priority 2009, dated 2014)
